Experimental findings from ChEMBL document CHEMBL1121722, “Nonquaternary cholinesterase reactivators. Dialkylaminoalkyl thioesters of alpha-ketothiohydroximic acids as reactivators of diisopropyl phosphorofluoridate inhibited acetylcholinesterase” (1981) are described below.

Amino acid sequences for entries named in this document (tags omitted). A change or cut given only in a name is not applied to a line headed by its entry.
UniProt P22303: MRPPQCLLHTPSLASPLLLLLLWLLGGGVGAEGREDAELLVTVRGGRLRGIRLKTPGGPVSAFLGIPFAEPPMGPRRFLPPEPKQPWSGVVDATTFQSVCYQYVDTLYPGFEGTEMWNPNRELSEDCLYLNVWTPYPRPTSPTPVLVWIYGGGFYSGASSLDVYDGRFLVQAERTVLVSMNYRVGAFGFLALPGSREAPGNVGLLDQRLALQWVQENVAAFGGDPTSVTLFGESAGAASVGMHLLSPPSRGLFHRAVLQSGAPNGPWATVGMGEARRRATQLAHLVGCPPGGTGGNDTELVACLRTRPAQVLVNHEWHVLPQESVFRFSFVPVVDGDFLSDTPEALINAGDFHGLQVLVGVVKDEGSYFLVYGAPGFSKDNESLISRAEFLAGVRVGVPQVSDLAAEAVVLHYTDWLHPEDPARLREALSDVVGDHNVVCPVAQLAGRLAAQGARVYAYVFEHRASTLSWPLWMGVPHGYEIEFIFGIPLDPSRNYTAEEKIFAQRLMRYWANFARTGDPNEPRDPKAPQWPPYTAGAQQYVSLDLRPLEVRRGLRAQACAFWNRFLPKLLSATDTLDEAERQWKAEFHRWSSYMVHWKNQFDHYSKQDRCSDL

Structures are written as SMILES.

Experiment [1] addresses Acetylcholinesterase (Homo sapiens) (UniProt P22303). In words: Pseudo first order observed rate constants for reactivation of acetylcholinesterase at 20 M*10e4 HOX and 7.52M*10e4OX; Kobs (min-1 X 10e3).
Experiment [2] has the same target. In words: Pseudo first order observed rate constants for reactivation of acetylcholinesterase at 4M*10e4 HOX and 1.52M*10e4OX; Kobs (min-1 X 10e3).
Experiment [3] shares this target. In words: Ratio of ka to that of kr for reactivation of acetylcholinesterase at concentration of 2M*10e4 [HOX] and 13.3Me-1*10e-3 [OX]e-1 was determined.
The target is the same in experiment [4]. In words: Ratio of [EOP'']infinity to that of [EOH]infinity for reactivation of acetylcholinesterase at concentration of 20 M*10e4 [HOX] and 1.33Me-1*10e-3 [OX]e-1; Expressed as [EOP'']infinity/[EOH]infinity.
Experiment [5] shares this target. In words: Maximum attainable percent reactivation obtained for a range of concentrations of 6M*10e4 HOX and 2.26M*10e4OX.
The target is the same in experiment [6]. In words: Pseudo first order observed rate constants for reactivation of acetylcholinesterase at 2M*10e4 HOX and 0.752M*10e4OX; Kobs (min-1 X 10e3).
Experiment [7] shares this target. In words: Pseudo first order observed rate constants for reactivation of acetylcholinesterase at 10M*10e4 HOX and 3.76M*10e4OX; Kobs (min-1 X 10e3).
Experiment [8] has the same target. In words: kb for reactivation of acetylcholinesterase at concentration of 2M*10e4 [HOX] and 13.3Me-1*10e-3 [OX]e-1 was determined; Expressed as kb, 1/M 1/min.
Experiment [9] shares this target. In words: Pseudo first order observed rate constants for reactivation of acetylcholinesterase at 7M*10e4 HOX and 2.63M*10e4OX; Kobs (min-1 X 10e3).
For experiment [10] the target is unchanged. In words: Kinetic constant was determined for reactivation of acetylcholinesterase at concentration of 6M*10e4 [HOX] and 4.42Me-1*10e-3 [OX]e-1; (kobsd-ka)e-1, min.
Experiment [11] has the same target. In words: Ratio of [EOP'']infinity to that of [EOH]infinity for reactivation of acetylcholinesterase at concentration of 0.2M*10e4 [HOX] and 175Me-1*10e-3 [OX]e-1; Expressed as [EOP'']infinity/[EOH]infinity.
For experiment [12] the target is unchanged. In words: Kr for reactivation of acetylcholinesterase at concentration of 2M*10e4 [HOX] and 10 Me-1*10e-3 [OX]e-1 was determined; Expressed as kr, M*10e4.
Experiment [13] shares this target. In words: Ratio of [EOP'']infinity to that of [EOH]infinity for reactivation of acetylcholinesterase at concentration of 10M*10e4 [HOX] and 3.50 Me-1*10e-3 [OX]e-1; Expressed as [EOP'']infinity/[EOH]infinity.
Experiment [14] shares this target. In words: Pseudo first order observed rate constants for reactivation of acetylcholinesterase at 0.0100 M*10e4 HOX and 0.0289 M *10e4OX; Kobs (min-1 X 10e3).
For experiment [15] the target is unchanged. In words: Pseudo first order observed rate constants for reactivation of acetylcholinesterase at 0.160 M *10e4 HOX and 0.0463M*10e4OX; Kobs (min-1 X 10e3).
The target is the same in experiment [16]. In words: Kinetic constant was determined for reactivation of acetylcholinesterase at concentration of 0.100 M *10e4 [HOX] and 346Me-1*10e-3 [OX]e-1; (kobsd-ka)e-1, min.
Experiment [17] has the same target. In words: Ratio of [EOP'']infinity to that of [EOH]infinity for reactivation of acetylcholinesterase at concentration of 0.160 M *10e4 [HOX] and 216Me-1*10e-3 [OX]e-1; Expressed as [EOP'']infinity/[EOH]infinity.
For experiment [18] the target is unchanged. In words: Kinetic constant was determined for reactivation of acetylcholinesterase at concentration of 0.0300 M *10e4 [HOX] and 1156Me-1*10e-3 [OX]e-1; (kobsd-ka)e-1, min.
Experiment [19] shares this target. In words: kb for reactivation of acetylcholinesterase at concentration of 2M*10e4 [HOX] and 10 Me-1*10e-3 [OX]e-1 was determined; Expressed as kb, 1/M 1/min.
For experiment [20] the target is unchanged. In words: Pseudo first order observed rate constants for reactivation of acetylcholinesterase at 0.0800 M*10e4 HOX and 0.0232 M *10e4OX; Kobs (min-1 X 10e3).
The target is the same in experiment [21]. In words: Kinetic constant was determined for reactivation of acetylcholinesterase at concentration of 10M*10e4 [HOX] and 3.5Me-1*10e-3 [OX]e-1; (kobsd-ka)e-1, min.
For experiment [22] the target is unchanged. In words: Kinetic constant was determined for reactivation of acetylcholinesterase at concentration of 0.0800 M*10e4 [HOX] and 431Me-1*10e-3 [OX]e-1; (kobsd-ka)e-1, min.
The target is the same in experiment [23]. In words: Ratio of ka to that of kr for reactivation of acetylcholinesterase at concentration of 2M*10e4 [HOX] and 10 Me-1*10e-3 [OX]e-1 was determined.

With `CCN(CC)CCS/C(=N\O)C(=O)c1ccc(OC)cc1`, the k obs in experiment [1] amounted to 0.128 s⁻¹; in experiment [2], 73.5 s⁻¹; in experiment [6] it was 50.4 s⁻¹; in experiment [7], 0.121 s⁻¹; in experiment [9], 119 s⁻¹. Besides, in experiment [3], the ka/kr worked out at 0.17. In experiment [4], the [EOP']infinity/[EOH]infinity is 0.357. The Reactivation in experiment [5] was determined as 3.79%. The kb in experiment [8] worked out at 0.5 M⁻¹ s⁻¹. Moreover, the 1/kobsd-ka in experiment [10] was found to be 281 min.
In the case of `C[n+]1ccccc1C=NO`, the “[EOP']infinity/[EOH]infinity” value in [11] is “n”; in experiment [13], 0.122; in experiment [17], 0.203. In experiment [12], this compound returned a Kr of 1100 M. Moreover, the figures for the k obs in experiment [14], in experiment [15] and in [20] were 327 s⁻¹, 337 s⁻¹ and 155 s⁻¹, respectively. Moreover, the 1/kobsd-ka turned out to be 55.5 min in experiment [16], 200 min in experiment [18], 8.13 min in experiment [21] and 129 min in experiment [22]. Moreover, the kb in experiment [19] was 91.7 M⁻¹ s⁻¹. Besides, the ka/kr in [23] turned out to be 0.11.
